# Reference: the OPERA property sets (Mansouri et al. 2018)
structure (smiles),measurement,value
Cc1cc([N+](=O)[O-])cc([N+](=O)[O-])c1O,solubility,999 µM
